{"sequences": {"note": "By UniProt entry, the sequences of proteins in these tests, tags left out. Residues count along the entry.", "UniProt Q07889, 564-1049": "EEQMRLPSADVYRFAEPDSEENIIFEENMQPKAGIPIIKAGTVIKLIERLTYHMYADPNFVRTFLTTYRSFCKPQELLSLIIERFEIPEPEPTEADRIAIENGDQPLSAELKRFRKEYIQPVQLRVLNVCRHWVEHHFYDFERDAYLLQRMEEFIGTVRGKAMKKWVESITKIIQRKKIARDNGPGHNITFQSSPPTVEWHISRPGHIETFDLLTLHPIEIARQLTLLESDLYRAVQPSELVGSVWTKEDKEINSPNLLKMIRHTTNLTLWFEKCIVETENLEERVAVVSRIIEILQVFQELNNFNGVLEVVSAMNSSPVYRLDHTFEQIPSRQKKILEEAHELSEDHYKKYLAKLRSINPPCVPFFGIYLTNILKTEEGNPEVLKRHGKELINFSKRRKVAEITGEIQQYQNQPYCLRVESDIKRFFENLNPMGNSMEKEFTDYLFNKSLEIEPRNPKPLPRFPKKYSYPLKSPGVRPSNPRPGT"}, "source": "patent US11168102B1", "about": "“Bicyclic heteroaryl compounds and uses thereof” (Revolution Medicines, Inc., priority 2019, dated 2021)", "key": {"[1]": {"target": "SOS1 catalytic domain (residues 564-1049) (Homo sapiens (Human), UniProt Q07889)", "test": "Potency assay: binding affinity to SOS1 by Surface Plasmon Resonance (SPR)", "conditions": "read-out: SOS1 SPR Equilibrium Kd"}, "[2]": {"target": "SOS1 nucleotide exchange of wild-type KRAS (Homo sapiens (Human), UniProt Q07889)", "test": "Mode of action assay: inhibition of SOS1 nucleotide exchange activity (TR-FRET)", "type": "biochemical"}}, "data": [{"smiles": "C[C@@H](Nc1ncnc2c1cc(C1(O)CCN(C)CC1)c(=O)n2C)c1cccc(C(F)F)c1F", "note": "[Example 28-1]", "values": [{"measurement": "Kd", "setting": "[1]", "value": 70.4, "unit": "nM"}, {"measurement": "IC50", "setting": "[2]", "value": 65.9, "unit": "nM"}]}]}
